# Measurements reported in PubChem BioAssay AID624418 (National Center for Advancing Translational Sciences (NCATS), 2012).
# This is a selection; strong and weak results do not stand in their true shares. Inconclusive results are not listed. Calls of active or inactive are those of the source. The call rests on the fitted dose curve; in most records, active means well fitted inhibition curve with a large enough effect; inconclusive means small, poorly fitted or top-dose-only effect, or another doubt; inactive means no such curve, though single readings can be large or run the other way.
# Assay: qHTS of GLP-1 Receptor Inverse Agonists: Cytotox Screen;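 further: loss of luciferase light is scored as toxicity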
# Details: HEK293 cAMP-luciferase reporter cells, luminescence, 24 h; at 38.3 µM (top of the series)
# Source text: The overall goal of this project was to develop a novel assay for discovering small molecule ligands for class B1 G protein-coupled receptors (GPCRs). Very few agonists (or inverse agonists) with generally weak activity for this entire group of physiologically important receptors are known to date. To establish proof-of-principle that this critical bottleneck can be overcome with a suitable screening approach, our studies focused on the class B1 receptor for glucagon-like peptide-1 (GLP-1R), a potential therapeutic target for diabetes and neurodegenerative disease.
# The assay was developed using a cell-based functional readout. Toward this goal, stably transfected HEK293 cell clones were established that co-express (i) a cAMP-responsive luciferase reporter gene, and (ii) constitutively active GLP-1R that upon ligand interaction inhibit (inverse agonists) the luciferase activity. […]
# Six ul of cell suspension (200 cells/uL in DMEM + 10% Nu serum + 1% pen-strep) is dispensed in a white solid 1536-well plate. […] A luminescence read is obtained on the PerkinElmer Viewlux after 12 min incubation at room temperature.
# On the % scale 0 is the no-effect control and ±100 the full control effect.
row,Compound,"activity change, negative = inhibition"
1,CCC(=O)N(c1ccccc1)C1(COC)CCN(CCc2cccs2)CC1,inactive: 2.38%
2,CCC(=O)N(c1ccccc1)C1(COC)CCN(CCn2nnn(CC)c2=O)CC1,inactive: -1.14%
